# Experimental data from paper PMC12022103, “Rational design of synthetic antimicrobial peptides based on the Escherichia coli ShoB toxin” (Scientific Reports, 2025).
# Protein sequences, listed by entry. Tags and fused reporters are not part of them. Residues count along the entry.
# UniProt P00761, 9-231: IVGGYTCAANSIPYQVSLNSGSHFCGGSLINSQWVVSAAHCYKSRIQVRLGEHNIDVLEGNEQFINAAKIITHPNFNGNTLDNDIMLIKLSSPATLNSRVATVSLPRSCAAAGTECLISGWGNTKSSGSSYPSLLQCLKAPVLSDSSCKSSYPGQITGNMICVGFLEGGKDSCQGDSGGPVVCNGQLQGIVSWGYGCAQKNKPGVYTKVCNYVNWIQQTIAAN
# How the values were obtained:
# [1] = tested on: E. coli ATCC 25922; assay: Minimum inhibitory concentration (MIC), broth dilution; type: cell-based, Escherichia coli; details: two-fold dilution in MH II broth, 5 × 10^5 CFU/mL, 18–24 h, 37 °C, OD600, triplicate, highest number reported, detection limit <0.5 and >128 µM
# Protocol: The panel of bacterial reference strains used in this work for assessment of synthetic peptide activity originated from the American Type Culture Collection (ATCC) and was obtained from the Diagnostic section at the Department of Microbiology, Oslo University Hospital. The strains used were as follows: E. coli ATCC 25922, K. pneumoniae ATCC 13883, A. baumannii ATCC 17978, S. aureus ATCC 29213, and E. faecalis ATCC 29212.
# Bacterial strains were plated on cation-adjusted Mueller-Hinton (MH II) agar plates and incubated at 37 °C overnight. The day after single colonies were picked and resuspended in sterile-filtered saline (0.9%). The OD of each bacterial suspension was adjusted to McFarland standard 0.5 using a spectrophotometer (UV-1800, Shimadzu), and the suspension further diluted 1:100 in MH II broth, corresponding to 10^6 colony forming units (CFU) per mL. […] After overnight incubation at 37 °C, colonies were counted. […]
# The peptides were serially diluted (two-fold) directly in 96-well plates (Greiner, MICROPLATE, 96 WELL, PP, U-BOTTOM, NATURAL, 650261) containing MH II broth, corresponding to concentrations in the range 256–0.5 µM. […] The 96-well plates were incubated for 18–24 h at 37 °C, after which the OD of each well was measured at 600 nm in a plate reader (Victor Nivo, Perkin-Elmer). […]
# [2] = tested on: E. coli ATCC 25922; assay: Frequency of resistance determination (p0 method); type: cell-based, Escherichia coli; details: E. coli ATCC 25922, 40 cultures, 4 × MIC, 24–48 h, colistin as reference, triplicate
# Description: The method was based on the Fluctuation assay (p0 method; Luria and Delbrück) for determination of mutation rate[33],[34], and optimized for selection of mutants in liquid medium. Colistin sulfate (Thermo Scientific, 15575146) served as control in experimentation. Initially, the MIC of colistin and peptides was verified through broth dilution in 96-well plates (as detailed above). In order to account for potential phenotypic heterogeneity among colonies derived from the same frozen stock, multiple colonies of E. coli ATCC 25922 were picked and inoculated in 2 mL MHII broth overnight at 37°C with continuous shaking. The following day, aliquots of colistin and peptide solutions were prepared in MHII broth at working concentrations 20 times the MIC. […] The plates were incubated at 37 °C in a humidified box, and OD was measured at 600 nm using a microplate reader (Victor Nivo, Perkin-Elmer) after 0, 24 and 48 h of incubation. […]
# To calculate the viable bacterial counts, the overnight culture was serially diluted 10-fold in MHII, after which 5 µl of the 10^− 3 – 10^− 9 dilutions were spotted onto MHII agar plates and incubated overnight at 37 °C. CFUs were counted the following day to determine CFU/mL of the overnight culture. […] The mutation rate, or frequency of resistance, was calculated using the following formula: […]
# [3] = tested on: E. coli; assay: Cell morphology by phase contrast microscopy; type: cell-based, Escherichia coli; details: 10× MIC, 5 min exposure, preliminary
# Protocol: To explore the potential correlation between general membrane destabilization and our FoR data, we conducted a brief preliminary examination of E. coli cell morphology following a pulsed exposure to our top four peptide candidates at 10× MIC. Cells were imaged by using phase contrast microscopy after 5 min of exposure. […] However, additional research using complementary techniques are necessary to conclusively characterize their killing mechanism.
# [4] = target: T1, trypsin (Sus scrofa, UniProt P00761); assay: Protease stability assessment (trypsin pre-incubation, then growth inhibition of E. coli); type: in vitro ADME; details: 37 °C
# T1 construct: purchased Gibco 11580626
# Protocol: Trypsin solution was prepared by dissolution of Trypsin (Gibco™ Trypsin-EDTA (0.05%), phenol red, 11580626) in PBS (pH 7) to obtain a final concentration of 0.25 mg/mL. Peptides were two-fold serially diluted in trypsin solution in 96-well plates (Greiner, MICROPLATE, 96 WELL, PP, U-BOTTOM, NATURAL, 650261) and incubated for 1–6 h at 37 °C. The plates were subsequently heated at 60 °C for 15 min to terminate the enzyme reaction. Bacterial susceptibility was next assessed by adding an equal volume of E. coli ATCC 25922 inoculum to the wells and following the protocol of the above described MIC assay.
structure (smiles),measurement,setting,value
CC[C@@H](C)[C@@H](NC(=O)[C@@H](CC(C)C)NC(=O)[C@@H](CCC(N)=O)NC(=O)[C@@H](CC(C)C)NC(=O)[C@H](NC(=O)[C@@H](C)NC(=O)[C@@H](CCCCN)NC(=O)[C@@H](CCCCN)NC(=O)[C@@H](CCCCN)NC(=O)[C@H](CCCCN)NC(=O)[C@H](CCCCN)NC(=O)[C@@H](NC(=O)[C@H](CCCNC(=N)N)NC(=O)[C@H](CCCCN)NC(=O)[C@@H](NC(=O)[C@H](CC(C)C)NC(=O)[C@H](Cc1ccc(O)cc1)NC(=O)[C@H](CCCNC(=N)N)NC(=O)CNC(=O)[C@H](CC(=O)O)NC(=O)[C@@H](NC(=O)[C@@H](N)CCSC)[C@@H](C)O)[C@@H](C)CC)C(C)C)C(C)C)C(=O)N[C@H](CC(C)C)C(=O)N[C@H](CCCCN)C(=O)N[C@H](Cc1ccccc1)C(=O)N[C@H](CC(C)C)C(=O)O [D-1a],"MIC, E. coli",[1],16 µM
same,Frequency of resistance (FoR) (in words),[2],eliminated mutagenicity
same,Membrane morphology of cells (in words),[3],indications of changes in membrane morphology
same,Fold reduction of apparent MIC after incubation with trypsin,"[4]; 0.125 mg/mL trypsin, 1–6 h, E. coli ATCC 25922",8 fold
same,Apparent MIC after incubation with trypsin,"[4]; pre-incubation with 0.125 mg/mL trypsin in PBS pH 7, 1 h or 6 h, then 60 °C 15 min, E. coli ATCC 25922 growth (OD) after 20–23 h, triplicate",2 µM
